Reference: US9951043B2, “Therapeutic compounds” (Gilead Sciences, Inc., priority 2013, dated 2018)

Test system: uninfected MT-4 cells
Assay: Test B: Cytotoxicity Assay
Assay type: cell-based
Conditions: same protocol as Test A, 5 days
Protocol: MT-4 cells were next mixed with HIV-IIIb at an m.o.i of 0.003 for 1 hour, after which time 35 μL of virus/cell mixture (2000 cells) was immediately added to each well containing 40 μL of diluted compound. The plates were then incubated at 37° C. for 5 days. After 5 days of incubation, 25 μl of 2× concentrated CellTiter-Glo™ Reagent (catalog #G7571, Promega Biosciences, Inc., Madison, Wis.) was added to each well containing MT-4 cells. Cell lysis was carried out by incubating at room temperature for 10 min and then chemiluminescence was read.
Test B: Cytotoxicity Assay
Compound cytotoxicity and the corresponding CC50 values was determined using the same protocol as described in the antiviral assay (Test A) except that uninfected cells were used.

Structure (SMILES) | CC50 [µM]
Cn1nc(NS(C)(=O)=O)c2c(Cl)ccc(-c3ccc(C#CC(C)(C)O)nc3[C@H](Cc3cc(F)cc(F)c3)NC(=O)Cn3nc(C(F)F)c4c3C(F)(F)[C@@H]3C[C@H]43)c21 [Compound 19G, (S)—N-(1-(3-(4-chloro-1-methyl-3-(methylsulfonamido)-1H-indazol-7-yl)-6-(3-hydroxy-3-methylbut-1-ynyl)pyridin-2-yl)-2-(3,5-difluorophenyl)ethyl)-2-((3bS,4aR)-5,5-difluoro-3-(difluoromethyl)-3b,4,4a,5-tetrahydro-1H-cyclopropa[3,4]cyclopenta[1,2-c]pyrazol-1-yl)acetamide] | 19.6
Cn1nc(NS(C)(=O)=O)c2c(F)ccc(-c3ccc(C#CC(C)(C)O)nc3[C@H](Cc3cc(F)cc(F)c3)NC(=O)Cn3nc(C(F)F)c4c3C(F)(F)[C@@H]3C[C@H]43)c21 [Compound 75, 2-((3bS,4aR)-3-(difluoromethyl)-5,5-difluoro-3b,4,4a,5-tetrahydro-1H-cyclopropa[3,4]cyclopenta[1,2-c]pyrazol-1-yl)-N—((S)-2-(3,5-difluorophenyl)-1-(3-(4-fluoro-1-methyl-3-(methylsulfonamido)-1H-indazol-7-yl)-6-(3-hydroxy-3-methylbut-1-yn-1-yl)pyridin-2-yl)ethyl)acetamide] | > 40.3
Cn1nc(NS(C)(=O)=O)c2c(Cl)ccc(-c3ccc(C#CC(C)(C)O)nc3[C@H](Cc3cc(F)cc(F)c3)NC(=O)Cn3nc(C(F)(F)F)c4c3C(F)(F)[C@@H]3C[C@H]43)c21 [Compound 78, N—((S)-1-(3-(4-chloro-1-methyl-3-(methylsulfonamido)-1H-indazol-7-yl)-6-(3-hydroxy-3-methylbut-1-yn-1-yl)pyridin-2-yl)-2-(3,5-difluorophenyl)ethyl)-2-((3bS,4aR)-5,5-difluoro-3-(trifluoromethyl)-3b,4,4a,5-tetrahydro-1H-cyclopropa[3,4]cyclopenta[1,2-c]pyrazol-1-yl)acetamide] | 14.4
Cc1ccc(-c2ccc(C#CC(C)(C)O)nc2[C@H](Cc2cc(F)cc(F)c2)NC(=O)Cn2nc(C(F)F)c3c2C(F)(F)[C@@H]2C[C@H]32)c2c1c(NS(C)(=O)=O)nn2C [Compound 112D, 2-((3bS,4aR)-3-(difluoromethyl)-5,5-difluoro-3b,4,4a,5-tetrahydro-1H-cyclopropa[3,4]cyclopenta[1,2-c]pyrazol-1-yl)-N—((S)-2-(3,5-difluorophenyl)-1-(3-(1,4-dimethyl-3-(methylsulfonamido)-1H-indazol-7-yl)-6-(3-hydroxy-3-methylbut-1-yn-1-yl)pyridin-2-yl)ethyl)acetamide] | 13.9
COc1ccc(-c2ccc(C#CC(C)(C)O)nc2[C@H](Cc2cc(F)cc(F)c2)NC(=O)Cn2nc(C(F)F)c3c2C(F)(F)[C@@H]2C[C@H]32)c2c1c(NS(C)(=O)=O)nn2C [Compound 141D, 2-((3bS,4aR)-3-(difluoromethyl)-5,5-difluoro-3b,4,4a,5-tetrahydro-1H-cyclopropa[3,4]cyclopenta[1,2-c]pyrazol-1-yl)-N—((S)-2-(3,5-difluorophenyl)-1-(6-(3-hydroxy-3-methylbut-1-yn-1-yl)-3-(4-methoxy-1-methyl-3-(methylsulfonamido)-1H-indazol-7-yl)pyridin-2-yl)ethyl)acetamide] | 19.8
Cn1nc(NS(C)(=O)=O)c2c(Cl)ccc(-c3ccc(C#CC(C)(O)C(F)F)nc3[C@H](Cc3cc(F)cc(F)c3)NC(=O)Cn3nc(C(F)F)c4c3C(F)(F)[C@@H]3C[C@H]43)c21 (stereo partly drawn) [Compound 169, N-((1S)-1-(3-(4-chloro-1-methyl-3-(methylsulfonamido)-1H-indazol-7-yl)-6-(4,4-difluoro-3-hydroxy-3-methylbut-1-yn-1-yl)pyridin-2-yl)-2-(3,5-difluorophenyl)ethyl)-2-((3bS,4aR)-3-(difluoromethyl)-5,5-difluoro-3b,4,4a,5-tetrahydro-1H-cyclopropa[3,4]cyclopenta[1,2-c]pyrazol-1-yl)acetamide] | 12.4
